US20250213572A1, “TYK2 INHIBITORS AND USES THEREOF” (Takeda Pharmaceutical Company Limited, priority 2022, published 2025)

Legend:
clinical = conditions: human, in vivo, 200 mg
[1] = 12 mg once-daily; cited from earlier work

Compound | AUC(0-inf) (clinical) | peak concentration achieved [1]
CNc1cc(Nc2cccn(-c3ccccn3)c2=O)nc2c(C(=O)N[C@@H]3CC[C@H]3OC)cnn12 [Compound 1, N-((1R,2R)-2-methoxycyclobutyl)-7-(methylamino)-5-((2-oxo-2H-[1,2′-bipyridin]-3-yl)amino)pyrazolo[1,5-a]pyrimidine-3-carboxamide] | 9020 ng·h/mL | –
deucravacitinib | – | approximately 120 ng/ml
